The values that follow are results of earlier work, collected in patent US20180161400A1, “ANTIDIABETIC ORAL INSULIN BIGUANIDE COMBINATION” (Emisphere Technologies, Inc., priority 2004, published 2018).

This series relates to people with Type 2 diabetes. As to conditions: UKPDS intensive therapy; cited from earlier work.

Take insulin: the average weight gain is recorded as 4 kg.
